In US20030118983A1, “Rapid screening procedure for inflammation mediators” (priority 2000, published 2003):

Tests used:
PMNs [1] = assay: Heme protein effect on DCFH oxidation in unstimulated, LPS and TNFα-, and PMA-stimulated PMNs, with or without NOS inhibitors, SOD or antioxidants; assay type: cell-based, human; conditions: PMA-stimulated PMNs, albumin 20 mg/mL
Experimental: DCFH-loaded PMNs were incubated with and without N-methyl-L-arginine (L-NMMA; 5 mM; Calbiochem, San Diego, Calif.) and heme proteins (0.3-1000 μg/mL) at 37 ° C. for 10 minutes. […] In unstimulated and LPS and TNFα -stimulated PMNs, the treatments were oxyMb, or oxyMb+L-NMMA (5 mM). […] RBC cell membranes were ruptured using a micro-ultrasonic cell disrupter, Kontes, Janke and Kukel Gmbh and CO. (Stauten, Germany). In PMA-stimulated PMNs without arginine, the treatments were oxyMb (dithionite-treated), oxyMb, chromatographically-purified oxyHb-A0 (98% ferrous), α-α […] cross-linked oxyHb (98.6% ferrous), oxyHb, or metHb. OxyMb was prepared by mixing excess sodium dithionite with Mb for 1 h and inorganic sulfur compounds were removed by dialyzing in HBSS buffer for 3 h. Percent iron in the ferric state in non-dithionite treated oxyMb or oxyHb was not assessed. Endotoxin levels in α-α Hb as determined by limulus amebocyte lysate assay was 0.125 EU/mL. […] cross-linked Hb was a gift from Walter Reed Army Institute of Research. […] Also, various concentrations of bovine liver Cu, Zn SOD (30-10,000 U/mL; 8-2640 μg/mL) and 30 μg/mL oxyMb were incubated with PMA-stimulated PMNs pretreated with and without L-NMMA. Flow cytometric measurements of oxidant-induced DCF fluorescence were performed as described above.

PMNs [2] = assay: OxyHb-FLEX bound to and internalized into PMNs (flow cytometry); assay type: cell-based, human; conditions: albumin 330 μM; 20 mg/mL; data not shown
Experimental: OxyHb bound to and internalized into PMNs was determined using fluorescein-conjugated oxyHb (Molecular Probes, Eugene, Oreg.). […] OxyHb-FLEX (1-250 μg/mL) was incubated with PMNs with and without albumin (20 mg/mL) for 10 min in a shaking water bath at 37° C. followed by a 30 min incubation with or without LPS (10 ng/mL) and TNFα (1 ng/mL) or PMA (200 nM). Flow cytometric measurements were performed as described above. To visualize intracellular levels of oxyHb-FLEX, whole cell and Z-plane images of PMNs were collected using an Axiovert 135 inverted confocal microscope (Zeiss, Thornwood, N.Y., and Atto Instruments, Rockville, Md.).

effect on oxyHb binding to PMA-activated PMNs (PMNs [2]): did not alter oxyHb binding
Substance: human albumin: human albumin at levels found in extracellular space of tissues (20 mg/mL)
reduction of oxyMb-induced DCF fluorescence (PMNs [1]): approximately 75%
